Data reported in patent publication EP2768830B1, “APOPTOSIS-INDUCING AGENTS FOR THE TREATMENT OF CANCER AND IMMUNE AND AUTOIMMUNE DISEASES” (AbbVie Inc., priority 2011, dated 2013).

The chains behind the UniProt entries cited, without tags or fusion partners.
UniProt Q07817, whole entry: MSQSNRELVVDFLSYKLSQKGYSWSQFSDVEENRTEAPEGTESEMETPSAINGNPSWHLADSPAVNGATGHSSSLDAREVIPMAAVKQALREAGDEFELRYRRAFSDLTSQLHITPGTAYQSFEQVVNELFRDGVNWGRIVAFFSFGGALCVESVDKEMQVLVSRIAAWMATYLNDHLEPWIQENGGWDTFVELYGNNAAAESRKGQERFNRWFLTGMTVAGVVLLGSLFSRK

Target: GST-Bcl-xL (Homo sapiens, UniProt Q07817)
Assay: not given
Details: read-out: TR-FRET binding Bcl-xL Ki

Compared with “6-[8-(1,3-benzothiazol-2-ylcarbamoyl)-3,4-dihydroisoquinolin-2(1H)-yl]-3-(5-methyl-1-{[6-(pyrrolidin-1-yl)pyridin-2-yl]methyl}-1H-pyrazol-4-yl)pyridine-2-carboxylic acid and 6-(8-(1,3-benzothiazol-2-ylcarbamoyl)-3,4-dihydroisoquinolin-2(1H)-yl)-3-(3-methyl-1-((6-(pyrrolidin-1-yl)pyridin-2-yl)methyl)-1H-pyrazol-4-yl)pyridine-2-carboxylic acid [Example 32]”, `Cc1c(-c2ccc(N3CCc4cccc(C(=O)Nc5nc6ccccc6s5)c4C3)nc2C(=O)O)cnn1Cc1ccccc1OCC1CCOCC1` [Example 99, 6-[8-(1,3-benzothiazol-2-ylcarbamoyl)-3,4-dihydroisoquinolin-2(1H)-yl]-3-{5-methyl-1-[2-(tetrahydro-2H-pyran-4-ylmethoxy)benzyl]-1H-pyrazol-4-yl}pyridine-2-carboxylic acid] is 5.6-fold lower in Ki: 5 nM for the first, 0.9 nM for the second.

First: O=C(Nc1nc2ccccc2s1)c1cccc2c1CN(c1ccc(-c3ccc(Oc4ccccc4)cc3)c(C(=O)O)n1)CC2 [Example 102, 6-[8-(1,3-benzothiazol-2-ylcarbamoyl)-3,4-dihydroisoquinolin-2(1H)-yl]-3-(4-phenoxyphenyl)pyridine-2-carboxylic acid]
Second: Cc1c(Oc2ccccc2)cccc1-c1ccc(N2CCc3cccc(C(=O)Nc4nc5ccccc5s4)c3C2)nc1C(=O)O [Example 110, 6-[8-(1,3-benzothiazol-2-ylcarbamoyl)-3,4-dihydroisoquinolin-2(1H)-yl]-3-(2-methyl-3-phenoxyphenyl)pyridine-2-carboxylic acid]
The Ki of the first is lower: under 0.1 nM for the first, 0.3 nM for the second.

`O=C(Nc1nc2ccccc2s1)c1cccc2c1CN(c1ccc(-c3cnn(CC4CCCCO4)c3)c(C(=O)O)n1)CC2` (stereo not drawn) [Example 149, 6-[8-(1,3-benzothiazol-2-ylcarbamoyl)-3,4-dihydroisoquinolin-2(1H)-yl]-3-[1-(tetrahydro-2H-pyran-2-ylmethyl)-1H-pyrazol-4-yl]pyridine-2-carboxylic acid] and `Cc1c(-c2ccc(N3CCc4cccc(C(=O)Nc5nc6ccccc6s5)c4C3)nc2C(=O)O)cccc1N(C)c1ccccc1` [Example 156, 6-[8-(1,3-benzothiazol-2-ylcarbamoyl)-3,4-dihydroisoquinolin-2(1H)-yl]-3-{2-methyl-3-[methyl(phenyl)amino]phenyl}pyridine-2-carboxylic acid] are within 1.5-fold of each other in Ki: 0.3 nM for the first, 0.2 nM for the second.

For `CN(c1nccc(-c2ccc(N3CCc4cccc(C(=O)Nc5nc6ccccc6s5)c4C3)nc2C(=O)O)c1C#N)C1CCCCC1` [Example 164, 6-[8-(1,3-benzothiazol-2-ylcarbamoyl)-3,4-dihydroisoquinolin-2(1H)-yl]-3'-cyano-2'-[cyclohexyl(methyl)amino]-3,4'-bipyridine-2-carboxylic acid], the Ki was under 0.1 nM.

Test system: mouse FL5.12 cells transfected with Bcl-XL
Assay: FL5.12 cellular assay (cell viability, CellTiter-Glo);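 also: each EC50 determination derived from duplicate measurements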
Type: cell-based
Details: IL-3-depleted, 3% FBS assay media, 24 hours, read-out: FL5.12 Bcl-xL, - IL3, EC 50

`Cc1cccc(Cn2cc(-c3ccc(N4CCc5cccc(C(=O)Nc6nc7ccccc7s6)c5C4)nc3C(=O)O)cn2)c1` [Example 13, 6-[8-(1,3-benzothiazol-2-ylcarbamoyl)-3,4-dihydroisoquinolin-2(1H)-yl]-3-[1-(3-methylbenzyl)-1H-pyrazol-4-yl]pyridine-2-carboxylic acid] and `O=C(Nc1nc2ccccc2s1)c1cccc2c1CN(c1ccc(-c3cnn(Cc4ccccc4Cl)c3)c(C(=O)O)n1)CC2` [Example 25, 6-[8-(1,3-benzothiazol-2-ylcarbamoyl)-3,4-dihydroisoquinolin-2(1H)-yl]-3-[1-(2-chlorobenzyl)-1H-pyrazol-4-yl]pyridine-2-carboxylic acid] are within 1.5-fold of each other in EC50: 498 nM for the first, 377 nM for the second.
